Species on record: Rattus norvegicus
Experiment: Selectivity ratio of Ki for DAT in Sprague-Dawley rat brain homogenate to Ki for SERT in Sprague-Dawley rat brain homogenate
Format: tissue-based
In short: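 Ratio of DAT Ki to SERT Ki. DAT Ki came from [3H]WIN 35,428 displacement and SERT Ki from [3H]citalopram displacement, both in rat brain tissue. Each Ki is the mean ± SEM of three experiments run in triplicate.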

For CN1CC(OCc2ccc(Cl)c(Cl)c2)(c2ccccc2)C1, the Ratio Ki was 1210.

Source: ChEMBL document CHEMBL2401648, “3-Aryl-3-arylmethoxyazetidines. A new class of high affinity ligands for monoamine transporters” (Bioorg Med Chem Lett, 2013)
